S100A4 inh HTS = inhibitors of S100A4-myosin IIA peptide binding, primary screen, biochemical, fluorescence polarization, TAMRA-MyoIIA peptide; Protein S100-A4 (Homo sapiens), P26447; inhibition, % at 10.7 µM; 360,000 tested, 0.14% active;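 active = mean inhibition of at least 70% across replicates, with every replicate also reaching that level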
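Test system: S100A4 monomer protein; Medium: HEPES pH 7.2 with CaCl2, KCl, NaCl, DTT, Triton; Probe or stimulus: TAMRA-labelled myosin IIA heavy-chain peptide probe, 5 nM; Doses: one dose per compound; Times: polarization read 5 min after assay mix addition, stable 5–60 min; Benchmarks: neutral control DMSO, positive control TFP.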
ARNT-TACC3 inh = disruptors of ARNT/TACC3 protein interaction, primary screen, biochemical, AlphaScreen, single concentration. inhibition, % at 9.99 µM. 390,000 tested, 0.66% active. AlphaScreen His-ARNT PAS-B/GST-TACC3 binding, luminescence; TACC3 fragment carries E629A point mutation. Transforming acidic coiled-coil-containing protein 3 (Homo sapiens), Q9Y6A5;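 active = mean inhibition of replicates at least 50% and at least half of replicates each reaching 50%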;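 note: 0% = complete ARNT plus TACC3 wells and 100% = ARNT alone without TACC3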
ERAP1 inh = human ERAP1 aminopeptidase inhibitors, primary screen, biochemical, single point, plate reader | Endoplasmic reticulum aminopeptidase 1 (Homo sapiens), Q9NZ08 | recombinant ERAP1, Leu-AMC fluorescence, 60 min | inhibition, % at 10.7 µM | 340,000 tested, 0.15% active | AID 652197, 2013;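 active = mean replicate inhibition of at least 30%, or all replicates individually reaching that 30% level; inactive = mean below 30% and not every replicate reaching it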;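 note: 0% = neutral control wells and 100% = L-leucinethiol positive control wells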
Yeast UUG start-1 = yeast start codon fidelity modulation; activity score, % at 18.7 µM; actives 0.13% (n = 350,000); S. cerevisiae UUG-firefly luciferase reporter, luminescence/redox ratio; AID 602363;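 active means replicate mean at a twofold rise or more, about +100% in these data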;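 further: firefly luciferase made from a UUG start codon reports start codon fidelity; reporter light over untreated wells divided by growth signal over untreated wells; some hits fall short of that in this replicate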
AF4-AF9 inh = inhibitors of AF4 peptide binding to AF9, primary screen, biochemical, AlphaScreen, biotin-AF4 peptide, FLAG-AF9, single point; inhibition, % at 10 µM; 350,000 tested, 0.47% active; AID 651704, 2012;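 active = every replicate reaching a set inhibition limit, whatever the replicate mean, cut at about 25% in these data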;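 note: 0% = plate neutral control median and 100% = total signal loss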
E-sel inducer = E-selectin induction in HUVECs, primary screen, imaging, HUVEC, immunofluorescence imaging, single point; P16581; normalized: neutral wells 0, TNF-alpha wells 100; activation, % at 7.58 µM; 260,000 tested, 0.37% active;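 active = mean E-selectin-positive cell signal at least 10% of the positive control, reached in at least 60% of replicates, without over 20% cell loss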
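System: HUVEC / Compound: single concentration / Signal: immunofluorescence imaging / Read-out: percent E-selectin-positive cells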
Yeast UUG start-2 = enhancers of UUG start codon usage in yeast, dose response, S. cerevisiae, UUG firefly luciferase, cherry-pick, set 2 | shares compounds with Yeast UUG start-1 | luminescence, 4 h; 100% means double the DMSO signal | activation, % at 38 µM | 540 tested, under 10 active | AID 652061, 2013;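 active = signal increase whose fitted curve reaches an absolute level of 40 at a concentration under 10 µM; inactive = activity opposite to the expected increase, or the rest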
* hit, by the source's call; i = inactive; / = not tested or not shown. Compounds with a hit are over-represented: about 1.3% of the library has one in this group of screens.

1. CC(=O)N(C)C[C@@H]1Oc2cc(C#C[C@@H](C)O)ccc2S(=O)(=O)N([C@@H](C)CO)C[C@@H]1C
2. COCC#Cc1ccc2c(c1)O[C@@H](CN(C)Cc1cccnc1)[C@@H](C)CN([C@@H](C)CO)S2(=O)=O
3. CC(C)C#Cc1ccc2c(c1)O[C@@H](CN(C)Cc1ccccn1)[C@@H](C)CN([C@H](C)CO)S2(=O)=O
4. C/C=C/c1ccc2c(c1)O[C@@H](CN(C)Cc1cncnc1)[C@@H](C)CN([C@H](C)CO)S2(=O)=O
5. CC(C)C#Cc1ccc2c(c1)O[C@@H](CN(C)Cc1ccccn1)[C@H](C)CN([C@H](C)CO)S2(=O)=O
6. CO[C@@H]1CN(C)C(=O)c2ccc(NS(C)(=O)=O)cc2OC[C@H](C)N(Cc2cncnc2)C[C@@H]1C
7. Cc1ccccc1-c1cnc2c(c1)C(=O)N([C@H](C)CO)C[C@H](C)[C@H](CN(C)C(=O)CC1CC1)O2
8. Cc1ccc(S(=O)(=O)Nc2ccc3c(c2)CC(=O)N([C@H](C)CO)C[C@@H](C)[C@@H](CN(C)C(=O)Nc2ccc4c(c2)OCO4)O3)cc1

Compound,1,2,3,4,5,6,7,8
S100A4 inh HTS,2,-11,0,39,-3,27,-1,-2
ARNT-TACC3 inh,-7,-24,8,-3,2,/,0,-4
ERAP1 inh,2,1,2,-2,-1,-1,2,1
Yeast UUG start-1,121*,154*,61*,110*,-7,-7,/,-2
AF4-AF9 inh,0,7,8,-2,8,-12,-11,0
E-sel inducer,0,6,1,-1,0,0,0,0
Yeast UUG start-2,i,i,i,i,/,/,/,/

9. C/C=C/c1ccc2c(c1)O[C@H](CN(C)Cc1cccc(F)c1)[C@@H](C)CN([C@@H](C)CO)S2(=O)=O
10. CCC(=O)N(C)C[C@@H]1Oc2cc(C#Cc3ccccc3)ccc2S(=O)(=O)N([C@@H](C)CO)C[C@@H]1C
11. C/C=C/c1ccc2c(c1)O[C@@H](CN(C)Cc1cccc(F)c1)[C@@H](C)CN([C@H](C)CO)S2(=O)=O
12. C[C@@H](O)C#Cc1ccc2c(c1)O[C@@H](CN(C)Cc1cncnc1)[C@@H](C)CN([C@@H](C)CO)S2(=O)=O
13. C[C@H]1CCCCO[C@@H](CN(C)Cc2ccncc2)[C@@H](C)CN([C@@H](C)CO)C(=O)c2cc(NC(=O)c3ccccc3)ccc2O1
14. NC(=O)CSc1nnc(-c2ccncc2)n1CCc1ccccc1
15. O=C(CNC(=O)c1ccccc1Br)N/N=C/c1ccco1
16. CN(C)C(=O)c1ccc(-c2ccccc2[C@@H]2[C@@H](C#N)N(C(=O)C3CCC3)[C@H]2CO)cc1

Compound,9,10,11,12,13,14,15,16
S100A4 inh HTS,23,4,0,-35,12,/,-3,3
ARNT-TACC3 inh,3,12,4,8,-7,-3,6,/
ERAP1 inh,1,4,1,-2,-4,/,-3,-2
Yeast UUG start-1,-5,183*,105*,103*,-8,173*,308*,/
AF4-AF9 inh,5,1,11,3,-6,/,-4,1
E-sel inducer,1,1,-1,1,0,/,/,0
Yeast UUG start-2,/,i,i,i,/,-2,-11,/

Values by screen from above:
ERAP1 inh, nos. 9–16: 1, 4, 1, -2, -4, /, -3, -2
E-sel inducer, nos. 9–16: 1, 1, -1, 1, 0, /, /, 0

The list goes on:
17. O=C(C[C@@H]1CC[C@H]2[C@@H](COC[C@@H](O)CN2Cc2ccccc2F)O1)NC1CCC1
18. C[C@H](CO)N1C[C@H](C)[C@H](CN(C)C(=O)c2cccnc2)Oc2ncc(-c3ccc(C#N)cc3)cc2C1=O
19. C[C@@H]1CN([C@@H](C)CO)C(=O)c2cc(-c3cccc(F)c3)cnc2O[C@@H]1CN(C)C(=O)c1cccc(F)c1
20. COc1ccc(C#Cc2cnc3c(c2)C(=O)N([C@@H](C)CO)C[C@H](C)[C@@H](CN(C)C(=O)CN(C)C)O3)cc1
21. C[C@H](CO)N1C[C@H](C)[C@H](CN(C)C(=O)Cc2ccccc2)OCCCC[C@H](C)Oc2ccc(NC(=O)C3CCCCC3)cc2C1=O
22. COC(=O)c1ccccc1NC(=O)CNC(=O)c1ccc(OC)cc1
23. CCCN(CC(=O)Nc1ccccc1C)C(=O)/C=C/c1cccs1
24. CCCN(CC(=O)Nc1ccccc1C)C(=O)Cc1cccs1

Compound,17,18,19,20,21,22,23,24
S100A4 inh HTS,1,-15,1,32,/,-11,-4,3
ARNT-TACC3 inh,-1,-15,2,10,-3,7,/,5
ERAP1 inh,0,-2,3,0,/,-5,0,0
Yeast UUG start-1,5,154*,active,-5,27,264*,active,-16
AF4-AF9 inh,-2,-2,-1,15,/,-4,8,6
E-sel inducer,0,0,0,0,0,/,/,-1
Yeast UUG start-2,/,i,i,/,/,-11,-4,/

25. C[C@@H]1CN([C@@H](C)CO)C(=O)Cc2cc(NS(=O)(=O)c3ccc(Cl)cc3)ccc2O[C@H]1CN(C)S(C)(=O)=O
26. COc1cc(CCC(=O)N2CCN(c3ccc([N+](=O)[O-])cc3)CC2)cc(OC)c1OC
27. COCC(=O)N1CCN(c2ccc([N+](=O)[O-])cc2)CC1
28. CC(C)CC#Cc1cnc2c(c1)C(=O)N([C@H](C)CO)C[C@@H](C)[C@H](CN(C)Cc1ccccn1)O2
29. C/C=C/c1cnc2c(c1)C(=O)N([C@@H](C)CO)C[C@@H](C)[C@@H](CN(C)C(=O)Cc1ccccn1)O2
30. CC(C)CC#Cc1cnc2c(c1)C(=O)N([C@@H](C)CO)C[C@H](C)[C@H](CN(C)Cc1ccccn1)O2
31. CS(=O)(=O)N1C[C@H](O)COC[C@@H]2O[C@@H](CC(=O)NCc3ccc(-c4ccccc4)cc3)CC[C@H]21
32. CCC(=O)Nc1ccc2c(c1)C(=O)N(C)C[C@@H](OC)[C@H](C)CN(C(=O)COC)[C@@H](C)CO2
33. CN1[C@H](C(=O)NCC2CCCCC2)[C@@H](CO)[C@@H]2Cn3c(cccc3=O)[C@@H]21
34. Cc1cc(C)c(S(=O)(=O)N2CCN(S(=O)(=O)N3CCCCCC3)CC2)c(C)c1

Compound,25,26,27,28,29,30,31,32,33,34
S100A4 inh HTS,38,-2,/,-5,12,1,4,-24,2,3
ARNT-TACC3 inh,-6,5,11,13,7,-2,7,-16,1,-14
ERAP1 inh,-1,4,/,0,3,0,0,0,-3,1
Yeast UUG start-1,4,16,671*,144*,143*,-11,/,-2,/,-17
AF4-AF9 inh,-1,2,/,-5,-3,-6,16,-1,1,-2
E-sel inducer,-15,0,/,0,0,0,0,0,0,0
Yeast UUG start-2,/,/,-2,i,i,/,/,/,/,/

In another format: results already given.
26: COc1cc(CCC(=O)N2CCN(c3ccc([N+](=O)[O-])cc3)CC2)cc(OC)c1OC
  S100A4 inh HTS = -2
  ARNT-TACC3 inh = 5
  ERAP1 inh = 4
  Yeast UUG start-1 = 16
  AF4-AF9 inh = 2
  E-sel inducer = 0
  Yeast UUG start-2 = /
27: COCC(=O)N1CCN(c2ccc([N+](=O)[O-])cc2)CC1
  S100A4 inh HTS = /
  ARNT-TACC3 inh = 11
  ERAP1 inh = /
  Yeast UUG start-1 = 671*
  AF4-AF9 inh = /
  E-sel inducer = /
  Yeast UUG start-2 = -2
